Columns and labels:
Assay in all cases: SPR; cytokine immobilised by amine coupling on a ProteOn GLH chip (ProteOn XPR36); S100A6 as analyte, 63 nM–8 µM, 300 s; 25 °C; 10 mM HEPES, 150 mM NaCl, 1 mM CaCl2, 0.05% Tween 20, pH 7.4; heterogeneous ligand model (single-site scheme for IL-2)
[1] = biological target: growth hormone variant (human) (UniProt P01242)
[2] = biological target: granulocyte–macrophage colony-stimulating factor (human) (UniProt P04141)
interleukin-26 (human) = interleukin-26 (human) (UniProt Q9NPH9)
interleukin-19 (human) = interleukin-19 (human) (UniProt Q9UHD0)
thrombopoietin (human) = thrombopoietin (human) (UniProt P40225)
interleukin-21 (human) = interleukin-21 (human) (UniProt Q9HBE4)
interleukin-22 (human) = interleukin-22 (human) (UniProt Q9GZX6)
interleukin-10 (human) = interleukin-10 (human) (UniProt P22301)
interleukin-35 (human) = biological target: interleukin-35 (human)
interleukin-24 (human) = interleukin-24 (human) (UniProt Q13007)
interleukin-31 (human) = interleukin-31 (human) (UniProt Q6EBC2)

For “S100A6 protein (from UniProt P06703 1-90) (natural protein)”, the Kd1 (KD, ligand population 1) [1] was 46.2 nM, the Kd2 (KD, ligand population 2) [1] was 1780 nM and the kd1 (koff, ligand population 1) [1] was 7.92e-05 s⁻¹. The kd2 (koff, ligand population 2) [1] was 0.00306 s⁻¹, the Kd1 (KD, ligand population 1) [2] was 2260 nM and the Kd2 (KD, ligand population 2) [2] was 3630 nM. For the same substance, the kd1 (koff, ligand population 1) [2] was 0.000792 s⁻¹, the kd2 (koff, ligand population 2) [2] was 0.0176 s⁻¹ and the Kd1 (KD, ligand population 1) (interleukin-26 (human)) was 278 nM. The Kd2 (KD, ligand population 2) (interleukin-26 (human)) was 600 nM, the kd1 (koff, ligand population 1) (interleukin-26 (human)) was 0.000598 s⁻¹ and the kd2 (koff, ligand population 2) (interleukin-26 (human)) was 0.00256 s⁻¹. For the same substance, the Kd1 (KD, ligand population 1) (interleukin-19 (human)) was 147 nM, the Kd2 (KD, ligand population 2) (interleukin-19 (human)) was 496 nM and the kd1 (koff, ligand population 1) (interleukin-19 (human)) was 0.000628 s⁻¹. The kd2 (koff, ligand population 2) (interleukin-19 (human)) was 0.0277 s⁻¹, the Kd1 (KD, ligand population 1) (thrombopoietin (human)) was 0.289 nM and the Kd2 (KD, ligand population 2) (thrombopoietin (human)) was 3.96 nM. The kd1 (koff, ligand population 1) (thrombopoietin (human)) was 6e-05 s⁻¹, the kd2 (koff, ligand population 2) (thrombopoietin (human)) was 0.00447 s⁻¹ and the Kd1 (KD, ligand population 1) (interleukin-21 (human)) was 45.7 nM. It also gave a Kd2 (KD, ligand population 2) (interleukin-21 (human)) of 387 nM, a kd1 (koff, ligand population 1) (interleukin-21 (human)) of 0.000188 s⁻¹ and a kd2 (koff, ligand population 2) (interleukin-21 (human)) of 0.00568 s⁻¹. For the same substance, the Kd1 (KD, ligand population 1) (interleukin-22 (human)) was 593 nM, the Kd2 (KD, ligand population 2) (interleukin-22 (human)) was 1310 nM and the kd1 (koff, ligand population 1) (interleukin-22 (human)) was 0.00357 s⁻¹. For the same substance, the kd2 (koff, ligand population 2) (interleukin-22 (human)) was 0.0326 s⁻¹, the Kd1 (KD, ligand population 1) (interleukin-10 (human)) was 361 nM and the Kd2 (KD, ligand population 2) (interleukin-10 (human)) was 2130 nM. For the same substance, the kd1 (koff, ligand population 1) (interleukin-10 (human)) was 0.000398 s⁻¹, the kd2 (koff, ligand population 2) (interleukin-10 (human)) was 0.015 s⁻¹ and the Kd1 (KD, ligand population 1) (interleukin-35 (human)) was 2340 nM. For the same substance, the Kd2 (KD, ligand population 2) (interleukin-35 (human)) was 4650 nM, the kd1 (koff, ligand population 1) (interleukin-35 (human)) was 0.00259 s⁻¹ and the kd2 (koff, ligand population 2) (interleukin-35 (human)) was 0.0391 s⁻¹. For the same substance, the Kd1 (KD, ligand population 1) (interleukin-24 (human)) was 239 nM, the Kd2 (KD, ligand population 2) (interleukin-24 (human)) was 601 nM and the kd1 (koff, ligand population 1) (interleukin-24 (human)) was 0.000573 s⁻¹. The kd2 (koff, ligand population 2) (interleukin-24 (human)) was 0.00779 s⁻¹, the Kd1 (KD, ligand population 1) (interleukin-31 (human)) was 106 nM and the Kd2 (KD, ligand population 2) (interleukin-31 (human)) was 256 nM. The kd1 (koff, ligand population 1) (interleukin-31 (human)) was 0.000464 s⁻¹ and the kd2 (koff, ligand population 2) (interleukin-31 (human)) was 0.0111 s⁻¹.
